Experimental data: patent US12030940B2, “Immunotherapeutic tumor treatment method” (Nektar Therapeutics, priority 2017, dated 2024)

How the values were obtained:
[1] = tested on: B16F10 mouse melanoma tumors; assay: Immune cells in tumor microenvironment by flow cytometry, subcutaneous B16F10 melanoma mice; assay type: in vivo
[2] = tested on: STAT5 phosphorylation in lymphocytes; assay: STAT5 phosphorylation in lymphocytes by flow cytometry after administration in mice; assay type: in vivo
Source text: Conventional approaches, such as those involving radiolabeling a compound, administering it in vivo, and determining its clearance, may be used to determine whether a compound proposed to be a long-acting IL-2Rβ biased agonist is “long-acting”. For the purposes herein, the long-acting nature of an IL-2Rβ biased agonist is typically determined using flow cytometry to measure STAT5 phosphorylation in lymphocytes at various time points after administration of the agonist to be evaluated in mice. As a reference, the signal is lost by around 24 hours with IL-2, but is sustained for a period greater than that for a long-acting IL-2Rβ-biased agonist.

| Substance | activated natural killer (NK) cells ([1]; 5 and 7 days after treatment initiation) | total and memory CD8 T cells as percentage of tumor-infiltrating lymphocytes ([1]; relative to vehicle) | CD4 cell percentages of tumor-infiltrating lymphocytes ([1]; relative to vehicle on day 5) | percentage of Tregs (FoxP3+ subset of CD4) in tumor ([1]; relative to vehicle, days 5, 7, 10) | duration of STAT5 phosphorylation signal [2] | time by which STAT5 phosphorylation signal is lost [2] |
| --- | --- | --- | --- | --- | --- | --- |
| (2,7-(bis-methoxyPEG10kD-carboxyamide)(9H-fluorene-9-yl)methyl N-carbamate)4-6interleukin-2 [RSLAIL-2] | increased | significant (P<0.05) and sustained | diminished | reduced percentage of Tregs at every time point | sustained over several days | – |
| IL-2: interleukin-2, unmodified reference for STAT5 phosphorylation signal and binding affinities | – | – | – | – | – | around 24 hours |
